Source: article PMC10257520 (Journal of medicinal chemistry, 2022)

How the values were obtained:
[1] = test system: NCI-H522 cells; settings: SAHA 5 μM
[2] = test system: DU-145 cells; settings: single dose of 10 μM

Row | SMILES | Cell death after one-day treatment [1] | Growth %, DU-145 [2]
1 | O=C(CCCCCCC(=O)Nc1ccccc1)NO [SAHA] | about 30% | 
2 | C#Cc1nc(C(=O)NCCCCCCC(=O)NO)cs1 [HY-1, 2-Ethynyl-N-(7-(hydroxyamino)-7-oxoheptyl)thiazole-4-carboxamide] |  | −51.12%
